Results on four molecules are retold here after ChEMBL document CHEMBL2163268, “Structure-based design of a novel series of potent, selective inhibitors of the class I phosphatidylinositol 3-kinases” (J Med Chem, 2012).

Sequences of proteins named here, by UniProt entry; tags and fusion partners are left off. A change or cut given only in a name is not applied to a line headed by its entry.
UniProt P42336, whole entry: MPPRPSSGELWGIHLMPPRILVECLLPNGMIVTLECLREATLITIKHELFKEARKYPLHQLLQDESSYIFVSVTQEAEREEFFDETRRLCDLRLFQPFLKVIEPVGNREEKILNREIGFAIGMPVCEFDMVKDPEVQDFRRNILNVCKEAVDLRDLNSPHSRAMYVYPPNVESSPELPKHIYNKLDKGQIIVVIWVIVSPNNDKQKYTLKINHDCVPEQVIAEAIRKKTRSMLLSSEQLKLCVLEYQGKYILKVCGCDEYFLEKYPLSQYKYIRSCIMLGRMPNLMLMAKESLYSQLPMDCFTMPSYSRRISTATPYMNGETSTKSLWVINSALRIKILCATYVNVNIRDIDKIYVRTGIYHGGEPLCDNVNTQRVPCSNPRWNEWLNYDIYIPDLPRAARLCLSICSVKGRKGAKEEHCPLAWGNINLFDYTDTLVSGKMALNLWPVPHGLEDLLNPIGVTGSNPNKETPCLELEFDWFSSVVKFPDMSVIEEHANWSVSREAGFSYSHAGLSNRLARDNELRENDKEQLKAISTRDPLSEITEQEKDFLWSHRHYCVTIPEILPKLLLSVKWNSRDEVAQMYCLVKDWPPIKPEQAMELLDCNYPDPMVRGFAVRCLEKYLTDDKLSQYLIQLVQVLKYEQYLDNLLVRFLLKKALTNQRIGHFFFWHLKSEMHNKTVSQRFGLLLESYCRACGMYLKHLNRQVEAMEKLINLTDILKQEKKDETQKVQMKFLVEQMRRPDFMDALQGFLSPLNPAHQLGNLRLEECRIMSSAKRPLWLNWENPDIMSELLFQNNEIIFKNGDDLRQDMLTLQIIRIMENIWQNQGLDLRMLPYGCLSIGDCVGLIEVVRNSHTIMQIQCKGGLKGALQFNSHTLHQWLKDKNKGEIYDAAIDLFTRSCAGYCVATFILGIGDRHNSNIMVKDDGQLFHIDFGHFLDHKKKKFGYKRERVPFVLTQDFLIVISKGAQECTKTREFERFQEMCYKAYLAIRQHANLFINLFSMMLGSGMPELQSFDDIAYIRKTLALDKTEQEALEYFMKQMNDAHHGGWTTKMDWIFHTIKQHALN
UniProt P42338: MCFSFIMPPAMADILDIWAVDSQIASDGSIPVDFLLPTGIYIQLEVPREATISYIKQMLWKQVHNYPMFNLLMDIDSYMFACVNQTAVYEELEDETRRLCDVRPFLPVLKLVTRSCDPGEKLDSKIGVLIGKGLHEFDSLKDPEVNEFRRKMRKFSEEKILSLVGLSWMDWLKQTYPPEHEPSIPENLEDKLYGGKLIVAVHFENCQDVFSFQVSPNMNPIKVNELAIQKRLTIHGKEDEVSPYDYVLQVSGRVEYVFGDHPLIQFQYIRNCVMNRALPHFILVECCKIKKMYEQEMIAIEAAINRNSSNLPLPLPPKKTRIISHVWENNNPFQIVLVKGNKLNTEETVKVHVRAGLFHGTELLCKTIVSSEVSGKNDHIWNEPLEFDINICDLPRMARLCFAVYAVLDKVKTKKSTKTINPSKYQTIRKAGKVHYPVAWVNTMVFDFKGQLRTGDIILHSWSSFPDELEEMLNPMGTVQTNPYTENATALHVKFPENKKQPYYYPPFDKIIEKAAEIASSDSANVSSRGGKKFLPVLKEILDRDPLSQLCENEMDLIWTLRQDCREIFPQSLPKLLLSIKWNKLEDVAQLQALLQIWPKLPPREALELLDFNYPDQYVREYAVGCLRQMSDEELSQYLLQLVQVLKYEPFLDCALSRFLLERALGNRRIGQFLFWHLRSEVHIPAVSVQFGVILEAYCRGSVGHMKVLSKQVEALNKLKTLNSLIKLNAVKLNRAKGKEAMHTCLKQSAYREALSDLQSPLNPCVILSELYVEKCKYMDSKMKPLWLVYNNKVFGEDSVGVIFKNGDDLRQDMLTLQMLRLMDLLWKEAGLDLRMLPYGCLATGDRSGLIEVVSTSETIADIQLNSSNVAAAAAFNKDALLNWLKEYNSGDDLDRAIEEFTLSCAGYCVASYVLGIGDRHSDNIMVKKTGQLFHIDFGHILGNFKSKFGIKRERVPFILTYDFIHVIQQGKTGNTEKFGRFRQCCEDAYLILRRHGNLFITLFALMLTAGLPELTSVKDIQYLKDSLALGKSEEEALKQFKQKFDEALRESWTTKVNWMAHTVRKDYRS
UniProt P48736: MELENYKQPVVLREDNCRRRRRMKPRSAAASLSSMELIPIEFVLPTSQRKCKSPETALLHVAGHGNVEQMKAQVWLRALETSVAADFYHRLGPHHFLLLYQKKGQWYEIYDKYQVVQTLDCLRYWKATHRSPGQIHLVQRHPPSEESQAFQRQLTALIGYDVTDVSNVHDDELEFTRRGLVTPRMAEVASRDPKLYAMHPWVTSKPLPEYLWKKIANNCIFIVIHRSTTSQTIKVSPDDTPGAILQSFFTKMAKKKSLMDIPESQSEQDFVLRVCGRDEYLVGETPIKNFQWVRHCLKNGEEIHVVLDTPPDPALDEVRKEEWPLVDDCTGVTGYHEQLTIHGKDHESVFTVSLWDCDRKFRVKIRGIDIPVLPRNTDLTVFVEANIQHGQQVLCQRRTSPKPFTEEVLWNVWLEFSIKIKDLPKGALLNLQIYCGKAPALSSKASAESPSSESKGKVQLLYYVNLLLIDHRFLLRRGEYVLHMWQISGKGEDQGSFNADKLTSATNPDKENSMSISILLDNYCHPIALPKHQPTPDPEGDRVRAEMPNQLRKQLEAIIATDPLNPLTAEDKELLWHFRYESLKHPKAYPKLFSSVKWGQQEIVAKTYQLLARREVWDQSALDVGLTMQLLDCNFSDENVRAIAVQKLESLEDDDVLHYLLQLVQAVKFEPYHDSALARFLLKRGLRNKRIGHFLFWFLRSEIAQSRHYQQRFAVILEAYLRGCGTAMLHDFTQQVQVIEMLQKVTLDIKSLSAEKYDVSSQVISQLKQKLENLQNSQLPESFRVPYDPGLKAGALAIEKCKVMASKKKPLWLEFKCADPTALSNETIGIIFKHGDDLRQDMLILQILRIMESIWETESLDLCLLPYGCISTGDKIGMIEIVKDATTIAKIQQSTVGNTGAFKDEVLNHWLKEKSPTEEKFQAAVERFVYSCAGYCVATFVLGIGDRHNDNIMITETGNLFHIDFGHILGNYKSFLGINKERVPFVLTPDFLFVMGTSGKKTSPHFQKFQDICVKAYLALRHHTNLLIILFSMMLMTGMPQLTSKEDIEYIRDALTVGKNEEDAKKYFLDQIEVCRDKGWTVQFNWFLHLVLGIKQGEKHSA

What all share (test): biochemical
Experiment [1] concerns the target Phosphatidylinositol 4,5-bisphosphate 3-kinase catalytic subunit alpha isoform (Homo sapiens, UniProt P42336).
For experiment [2], the target named is Phosphatidylinositol 4,5-bisphosphate 3-kinase catalytic subunit beta isoform (Homo sapiens, UniProt P42338).
Experiment [3] addresses Phosphatidylinositol 4,5-bisphosphate 3-kinase catalytic subunit gamma isoform (Homo sapiens, UniProt P48736).
Experiment [4] has as its target T1, Phosphatidylinositol 4,5-bisphosphate 3-kinase catalytic subunit delta isoform (Homo sapiens, UniProt O00329).
T1 sequence (O00329 whole entry): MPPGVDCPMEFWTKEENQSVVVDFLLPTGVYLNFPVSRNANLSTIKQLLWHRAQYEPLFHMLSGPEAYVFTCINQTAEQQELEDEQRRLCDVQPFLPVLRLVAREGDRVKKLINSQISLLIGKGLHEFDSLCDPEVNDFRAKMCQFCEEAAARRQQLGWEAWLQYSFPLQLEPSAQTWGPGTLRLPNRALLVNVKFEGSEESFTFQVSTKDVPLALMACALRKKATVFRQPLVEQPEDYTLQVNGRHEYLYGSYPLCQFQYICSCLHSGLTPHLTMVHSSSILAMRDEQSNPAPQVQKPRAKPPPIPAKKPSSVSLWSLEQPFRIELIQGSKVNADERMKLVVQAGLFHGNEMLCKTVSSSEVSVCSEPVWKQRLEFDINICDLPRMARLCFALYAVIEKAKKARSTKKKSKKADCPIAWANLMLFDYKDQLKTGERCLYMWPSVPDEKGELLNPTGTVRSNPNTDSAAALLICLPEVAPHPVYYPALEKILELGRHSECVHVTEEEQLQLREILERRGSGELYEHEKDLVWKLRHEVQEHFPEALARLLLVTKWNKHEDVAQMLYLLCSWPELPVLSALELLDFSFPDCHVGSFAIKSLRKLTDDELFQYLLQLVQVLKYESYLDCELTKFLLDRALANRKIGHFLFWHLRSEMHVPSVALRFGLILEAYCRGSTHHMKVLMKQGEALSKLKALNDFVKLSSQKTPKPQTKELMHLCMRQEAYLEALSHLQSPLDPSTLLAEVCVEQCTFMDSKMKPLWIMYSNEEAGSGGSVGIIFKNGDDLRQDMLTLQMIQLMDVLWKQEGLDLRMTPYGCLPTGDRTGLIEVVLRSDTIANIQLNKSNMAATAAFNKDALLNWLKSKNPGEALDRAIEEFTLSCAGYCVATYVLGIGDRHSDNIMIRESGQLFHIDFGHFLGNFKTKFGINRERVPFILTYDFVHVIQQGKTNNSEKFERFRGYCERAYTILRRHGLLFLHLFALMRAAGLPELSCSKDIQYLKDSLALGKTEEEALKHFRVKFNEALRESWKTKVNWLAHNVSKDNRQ

Take `COc1ccc(Nc2ncc(Cc3ccc(S(C)(=O)=O)cc3)cc2-c2nc(C)nc(N)n2)cn1`: the inhibitory constant (Ki) (commonly the dissociation constant of the complex between target and ligand, obtained from inhibition or displacement) in experiment [1] is 3 nM; in experiment [2], 2 nM.
`COc1ccc(Nc2ncc(-c3ccc(C)nc3)cc2-c2nc(C)nc(N)n2)cn1`: affinity in experiment [3] was put at a Ki of 8 nM.
`Cc1nc(-c2cccnc2Nc2cccc3[nH]ncc23)c2nc[nH]c2n1` gave an inhibition constant Ki in experiment [2] of 28 nM.
As for `COc1ccc(Nc2ncccc2-c2nc(C)nc3nc[nH]c23)cn1`, the Ki in experiment [4] turned out to be 70 nM.
